Positions count from the first letter of the chain named. Each block holds one binder with its values, some of them ahead of it.
Columns and labels:
[1] = target: Vg5/Vd2 TCR on SKW3 cells (UniProt A0JD36); assay: flow cytometry, dose-response binding at 37° C. on SKW3 cells expressing Vg5/Vd2
[2] = target: Vg9/Vd2 TCR on SKW3_4 cells (UniProt Q99603); assay: flow cytometry, dose-response binding at 37° C. on SKW3_4 cells expressing Vg9/Vd2
[3] = target: Vg9/Vd1 TCR on SKW3 cells (UniProt Q99603); assay: flow cytometry, dose-response binding at 37° C. on SKW3 cells expressing Vg9/Vd1

By UniProt entry, the sequences of proteins in these tests, tags left out. Residues count along the entry.
UniProt A0JD36, 20-115: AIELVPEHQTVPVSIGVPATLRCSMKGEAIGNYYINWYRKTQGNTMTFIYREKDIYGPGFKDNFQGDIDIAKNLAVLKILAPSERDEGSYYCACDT
UniProt Q99603, 21-122, chain 1 of 2: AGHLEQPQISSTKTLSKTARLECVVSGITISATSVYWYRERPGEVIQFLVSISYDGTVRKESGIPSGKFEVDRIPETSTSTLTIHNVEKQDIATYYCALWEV

Max. Activity (fold over background) [1]: 2.22 | Max. Activity (fold over background) [2]: 100 | Max. Activity (fold over background) [3]: 260
B1: VG9B64 (antibody, human IgG1, kappa, V domains shown)
VH: QVQLVESGPTLVKPTQTLTLTCTFSGFSLSISGVSVGWIRQPPGKALEWLALIYWNDDKRYSPSLQSRVTITKDTSKNQVVLTVTNMDSVDTATYYCVHSGQWLEGDAFDIWGQGTMVTVSS
VL: DIVMTQTPLSSPVTLGQPASISCRSSESLVHSDGNTYLSWLQQSPGQPPRLLIYKISNRFSGVPDRFSGSGAGTDFTLKISRVEAEDVGVYYCMQATQFPLTFGGGTKLEIKR

Max. Activity (fold over background) [1]: 2.52 | Max. Activity (fold over background) [2]: 40 | Max. Activity (fold over background) [3]: 108
B2: VG9B32 (antibody, human IgG1, kappa, V domains shown)
VH: EVQLVQSGGDLLQPGGSLRLSCAASGFTFSRYAMNWVRQAPGKGLEWVSFISGTGYTVYYADSVKGRFTISRDNAKNSLYLQMNSLRDEDTAVYYCARDQEPGFDYWGQGTLVTVSS
VL: B1 VL with S26G, E27Q, S44R, Q98H, L101F, G105Q
